Among the data in ChEMBL document CHEMBL1156805, “Development of (S)-N6-(2-(4-(isoquinolin-1-yl)piperazin-1-yl)ethyl)-N6-propyl-4,5,6,7-tetrahydrobenzo[d]-thiazole-2,6-diamine and its analogue as a D3 receptor preferring agonist: potent in vivo activity in Parkinson's disease animal models” (J Med Chem, 2010) are Ki values, retold here.

Amino acid sequences for entries named in this document (tags omitted).
UniProt P61169, whole entry: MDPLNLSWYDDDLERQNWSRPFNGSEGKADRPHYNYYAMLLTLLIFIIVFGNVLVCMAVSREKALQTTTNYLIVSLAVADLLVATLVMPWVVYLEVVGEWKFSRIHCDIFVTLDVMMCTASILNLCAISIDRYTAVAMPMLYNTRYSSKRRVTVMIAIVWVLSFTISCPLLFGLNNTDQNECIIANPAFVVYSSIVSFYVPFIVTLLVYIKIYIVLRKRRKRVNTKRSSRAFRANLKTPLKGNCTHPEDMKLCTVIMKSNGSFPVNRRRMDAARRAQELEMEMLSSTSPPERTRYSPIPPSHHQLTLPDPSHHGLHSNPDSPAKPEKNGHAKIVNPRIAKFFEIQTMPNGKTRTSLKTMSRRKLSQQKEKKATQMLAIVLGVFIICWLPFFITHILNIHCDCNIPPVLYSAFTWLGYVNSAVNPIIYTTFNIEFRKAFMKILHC

This experiment addresses D(2) dopamine receptor (Rattus norvegicus, UniProt P61169).

The term Ki denotes the equilibrium dissociation constant of an inhibitor or competing ligand from its target. Read a low Ki as higher affinity. The compound `CCCN(CCN1CCN(c2ccccc2)CC1)[C@@H]1CCc2c(O)cccc2C1` gave an inhibitory constant (Ki) of 26 nM.
